# Test results published in patent US20220233523A1, “ANTIBIOTIC POTENTIATION FOR NONTUBERCULOUS MYCOBACTERIAL DISEASE” (priority 2019, published 2022).
# Test system: MAH104 biofilms
# Assay type: cell-based, Mycobacterium avium subsp hominissuis 104 (MAH104)
# Conditions: Biolog PM1/PM2A plates
# Method: Metabolic phenotype study was performed with planktonic and biofilm cultures using the 96-well plates PM1 and PM2A (BIOLOG™, Hayward, Calif.). The assays with planktonic cells and biofilms were made at the same time. Each plate contains carbon substrates and one negative control well, in which the bacteria is tested without any substrate. The tests with planktonic and biofilm cultures were performed at the same time and the culture inoculum have the same number of passages. […] The experiments were made as an end-point assay.
# The cultures of biofilms were established for 7 days in regular polystyrene 96 well plates, not in PM Biolog plates, as described above with a minor difference. […] (total of 14 days of biofilm incubated at 37° C.). To obtain spectrophotometric measurements from biofilm cultures (O.D.590 nm), the plate was centrifuged for 20 minutes at 3500 rpm at 20° C., which reduce bacteria interference with the readings, and biofilm supernatant was transferred to a new 96 well plates for O.D.590 nm measurement.
# Experiments were performed three times as an end-point assay. […] Abiotic reductions of the Redox dye were assessed through adding bacteria-free GN/GP-IF-0a fluid in the wells. […]
smiles,measurement,value
O=C(O)CCC(=O)C(=O)O [α-Keto-Glutaric acid],metabolized by biofilm cultures,unable to metabolize
